# Binding of CDR-mutated scFvs to a peptide of the spike HR2 region

From the AlphaSeq antibody data of Li et al. 2023 (doi:10.1038/s41467-023-39022-2), copy in the FLAb collection.

Antigen: PDVDLGDISGINAS, a 14-residue peptide of the SARS-CoV-2 spike HR2 region.

Each scFv is VH, the linker GGGGSGGGGSGGGGS, VL, as in the parent Ab-14, and differs from it in the CDRs of the heavy chain only.
VH: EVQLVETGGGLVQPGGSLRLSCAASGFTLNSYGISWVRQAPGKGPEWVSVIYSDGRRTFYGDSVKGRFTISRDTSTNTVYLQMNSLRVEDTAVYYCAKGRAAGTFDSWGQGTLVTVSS
VL: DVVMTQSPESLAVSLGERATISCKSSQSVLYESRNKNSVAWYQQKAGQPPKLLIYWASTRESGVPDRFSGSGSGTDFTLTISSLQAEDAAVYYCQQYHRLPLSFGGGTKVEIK

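The starting antibody came from a phage panning campaign against this peptide. Designed CDR sequences, proposed from the first random library and measured here. Their group label is 14H_Ctrl (Ctrl: baseline library sampled from a position-specific scoring matrix, with some repeated check sequences). AlphaSeq pools MATa yeast showing the antibodies with MATalpha yeast showing the peptide. The frequency of each diploid, read from paired DNA barcodes, reflects how well the two displayed proteins bind. Scores were corrected for input abundance and mapped to Kd with protein pairs of known affinity run in the same pool. There are six technical replicates.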

Each variant is given by its three heavy chain CDRs, as the data file delimits them; those of the parent are GFTLNSYGIS, VIYSDGRRTFYGDSVK, GRAAGTFDS. Values are log10 of the apparent Kd in nM; lower means stronger binding. The mean shown is taken over the replicates in which the pair was detected. Where no diploid with the target was found in that replicate, the entry reads "nd": below detection, most likely a poor binder, though not proof of it.

{"CDR-H1": "GFGLNSYGSS", "CDR-H2": "VIYSDGRRTFYGDSVK", "CDR-H3": "GRAAGTFDS", "replicates, log10 nM": "nd / nd / nd / nd / nd / nd", "mean, log10 nM": "nd", "empty controls": "0/18"}
{"CDR-H1": "RNTLNSYGIS", "CDR-H2": "VIYADGLRTAYGDSVK", "CDR-H3": "GRAAGTFDS", "replicates, log10 nM": "0.09 / -0.07 / 0.16 / -0.09 / 0.41 / 0.17", "mean, log10 nM": "0.11", "empty controls": "1/18 (1.83)"}
{"CDR-H1": "GFWLNSYGIS", "CDR-H2": "VIYSDGRRTFYHDKVK", "CDR-H3": "GAAAGTFDS", "replicates, log10 nM": "nd / nd / nd / nd / nd / nd", "mean, log10 nM": "nd", "empty controls": "0/18"}
{"CDR-H1": "GFTLNSYGIS", "CDR-H2": "VIYSDGRRTFYGDSVK", "CDR-H3": "GRVAGSFDS", "replicates, log10 nM": "0.94 / 1.18 / 1.63 / 1.80 / 1.02 / 2.10", "mean, log10 nM": "1.45", "empty controls": "0/18"}
{"CDR-H1": "GFTINSYGIS", "CDR-H2": "VIYADGHRTFYADSVK", "CDR-H3": "GNAAGTFDS", "replicates, log10 nM": "1.19 / 1.38 / 1.23 / nd / 3.77 / nd", "mean, log10 nM": "1.89", "empty controls": "0/18"}
{"CDR-H1": "GFTLNSYGIS", "CDR-H2": "VIYSDGRRTFYGDSVD", "CDR-H3": "GRAAGTFGS", "replicates, log10 nM": "nd / nd / nd / nd / nd / nd", "mean, log10 nM": "nd", "empty controls": "1/18 (2.00)"}
{"CDR-H1": "GFTLNSYGIS", "CDR-H2": "VIYSDGRRTFYGDSVK", "CDR-H3": "ARAATWFDS", "replicates, log10 nM": "nd / nd / nd / nd / nd / nd", "mean, log10 nM": "nd", "empty controls": "0/18"}
{"CDR-H1": "GFTLNEHGIS", "CDR-H2": "VIYSDGSRTFYGDSVK", "CDR-H3": "GRAAGYFDS", "replicates, log10 nM": "nd / nd / nd / nd / nd / 2.93", "mean, log10 nM": "2.93", "empty controls": "0/18"}
{"CDR-H1": "GFTLNDYGIS", "CDR-H2": "VIYSDGQRTFYGDSVK", "CDR-H3": "GRHAGTTDS", "replicates, log10 nM": "nd / 0.76 / 0.74 / 1.33 / 1.11 / 2.10", "mean, log10 nM": "1.21", "empty controls": "0/18"}
{"CDR-H1": "GFTLNSYGIS", "CDR-H2": "VIYSDGRRTQYGDSVK", "CDR-H3": "GRAAGTFHS", "replicates, log10 nM": "nd / nd / nd / nd / nd / nd", "mean, log10 nM": "nd", "empty controls": "0/18"}
{"CDR-H1": "GFTLNSYGYS", "CDR-H2": "VIYSDGRRTFYGDSVK", "CDR-H3": "GLAAGTFDS", "replicates, log10 nM": "nd / nd / nd / nd / nd / nd", "mean, log10 nM": "nd", "empty controls": "0/18"}
{"CDR-H1": "GFTLNSYGIS", "CDR-H2": "VIYSDGRRTAYGDSVK", "CDR-H3": "GIAAGHFDL", "replicates, log10 nM": "-0.23 / 0.63 / 0.10 / 0.54 / -0.06 / -0.02", "mean, log10 nM": "0.16", "empty controls": "0/18"}
{"CDR-H1": "GFTLNSYGIS", "CDR-H2": "VIYSDGRRTAYSDSVK", "CDR-H3": "GRAAGTFDN", "replicates, log10 nM": "nd / nd / nd / nd / nd / nd", "mean, log10 nM": "nd", "empty controls": "0/18"}
{"CDR-H1": "GFGLNSYGIS", "CDR-H2": "VIYSDGRRTFYGDSVK", "CDR-H3": "GRAAGTFDS", "replicates, log10 nM": "1.23 / 1.58 / 1.55 / 1.56 / 2.02 / 1.92", "mean, log10 nM": "1.64", "empty controls": "0/18"}
{"CDR-H1": "GFTLNSYGIS", "CDR-H2": "VIYSDGRRTFYEDSVK", "CDR-H3": "GREAGTFDK", "replicates, log10 nM": "1.75 / 0.61 / 0.51 / 0.22 / 0.75 / 0.91", "mean, log10 nM": "0.79", "empty controls": "0/18"}
{"CDR-H1": "GFTLNSYGYS", "CDR-H2": "VIYSDGRRTFYGDGVK", "CDR-H3": "IRAAGTFIK", "replicates, log10 nM": "nd / nd / nd / nd / nd / nd", "mean, log10 nM": "nd", "empty controls": "0/18"}
{"CDR-H1": "GFTLNSYGIS", "CDR-H2": "VIYSDGRRTFYGDSVK", "CDR-H3": "GRAAGTFSS", "replicates, log10 nM": "nd / nd / nd / nd / 1.90 / nd", "mean, log10 nM": "1.90", "empty controls": "0/18"}
{"CDR-H1": "GFTLNSYGIS", "CDR-H2": "VIYSDGRRTHYMDSVK", "CDR-H3": "GRIAFTFDS", "replicates, log10 nM": "nd / nd / nd / nd / nd / nd", "mean, log10 nM": "nd", "empty controls": "0/18"}
{"CDR-H1": "GFTLNSYGIS", "CDR-H2": "VIYSDGRRTFYGDCYK", "CDR-H3": "GNAAGTFDS", "replicates, log10 nM": "nd / nd / nd / nd / nd / nd", "mean, log10 nM": "nd", "empty controls": "0/18"}
{"CDR-H1": "GFTLNMYGIS", "CDR-H2": "VIYSDGSRQFYGDSVK", "CDR-H3": "GRNAGLFDS", "replicates, log10 nM": "nd / nd / nd / nd / nd / nd", "mean, log10 nM": "nd", "empty controls": "0/18"}
{"CDR-H1": "GFTLNSYGIS", "CDR-H2": "VIYSDGRRAFYGDSVK", "CDR-H3": "GWAAGTFDS", "replicates, log10 nM": "nd / nd / nd / 2.14 / nd / nd", "mean, log10 nM": "2.14", "empty controls": "0/18"}
{"CDR-H1": "LFTINSYGIS", "CDR-H2": "VIYSDGRRTFYGDSVK", "CDR-H3": "GKAAGTFDL", "replicates, log10 nM": "nd / nd / nd / nd / 2.50 / 2.42", "mean, log10 nM": "2.46", "empty controls": "1/18 (2.00)"}

Background: pairings of all heavy chain designs with three empty control strains gave a value in 1% of cases (median 2.08, 5th percentile 0.84). Values in that range, when seen in few replicates, are hard to tell from nonspecific mating. The control count says in how many pairings with the empty strains this scFv gave a signal, with their mean in brackets. Values of this round are not directly comparable with the first-round values of the same sequences. In the paper, a design with two or fewer of six values counts as a poor binder. Of ten entries with the parent sequence, four were seen in most replicates (averages 0.34 to 2.37), three in one and three in none, so single entries are noisy.